Measurements as given in patent US20100130432A1, “Non-Natural Amino Acids and Neurotensin Analogues Thereof” (priority 2005, published 2010).
Non-standard residues stand in square brackets, D forms with d. Residues, ends and D or L forms follow the SMILES beside them. *: point of attachment. X5 = [N-]=[N+]=N[C@@H](CCCCCN)C(=O)*; Tle = CC(C)(C)[C@H](N)C(=O)O; X1 = C[C@@H](CCCCCN)C(=O)*

Chains of the proteins cited; added tags and fusions are not shown.
UniProt O95665, whole entry, species assumed: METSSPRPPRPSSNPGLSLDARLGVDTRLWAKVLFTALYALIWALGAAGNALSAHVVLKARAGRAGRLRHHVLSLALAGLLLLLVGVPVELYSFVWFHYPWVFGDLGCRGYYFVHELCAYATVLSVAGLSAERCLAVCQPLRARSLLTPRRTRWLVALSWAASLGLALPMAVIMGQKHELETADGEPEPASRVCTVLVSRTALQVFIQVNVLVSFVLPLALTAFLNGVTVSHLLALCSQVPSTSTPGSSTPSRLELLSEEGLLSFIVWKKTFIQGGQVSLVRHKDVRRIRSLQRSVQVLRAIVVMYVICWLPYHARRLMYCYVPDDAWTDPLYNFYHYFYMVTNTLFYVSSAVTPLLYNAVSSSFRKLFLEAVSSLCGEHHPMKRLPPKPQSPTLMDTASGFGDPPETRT

Experiments:
[1] = biological target: NTR-2 (Homo sapiens, UniProt O95665); test: Competitive NTR binding versus radiolabeled NT[8-13]
[2] = Pharmacokinetics of ABS201 in blood/plasma (LC/MS/MS)
Description: At selected time points, blood was removed or brain harvested and the concentration of the peptide analog determined using LC/MS/MS.
These samples were then used for the determination of plasma and brain drug levels by LC/MS/MS for estimating BBB penetration and pharmacokinetic parameters.

[3] = system: rats; test: d-Amphetamine induced hyperlocomotion / locomotor activity chambers; type: in vivo, rat; conditions: administered orally
Description: Sound- and light-attenuated locomotor cages are used to measure the ability of potential candidates to decrease d-amphetamine-induced hyperactivity.
d-Amphetamine induced hyperlocomotion. Experimentally I male Sprague-Dawley rats were housed as described above. Rats were handled for three days prior to testing to minimize experimenter induced hyperlocomotion on test day. For experiments, sound- and light-attenuated automated photocell beam activity chambers (AccuScan Instruments, Inc., Columbus, Ohio) were used to measure locomotion. Cages were connected to a VersaMax Analyzer (AccuScan) in conjunction with an IBM computer using VersaMax 1.80-0146 software (AccuScan) to record vertical and horizontal activity. Total activity values recorded were the sum of vertical and horizontal activity. […]
Rats were placed in the activity chambers for 30 minutes to habituate and establish baseline activity levels. Then, rats were removed and given an IP or oral dose of peptide (N=7) or saline (N=8) and returned to the chamber to establish the peptide's effect on spontaneous activity levels. About 30 minutes after administration, rats were removed and given an IP injection of d-amphetamine (1 mg/kg) or vehicle and returned to the chamber for a further 1 hr to assess the effect of the peptide on induced hyperlocomotion.
Chronic Testing Protocols. […]

[4] = system: rats; test: Hotplate assay; type: in vivo, rat; conditions: gavage 20 mg/kg
Description: Animals. Experimentally naïve male Sprague-Dawley rats from Charles River Laboratories, Raleigh, N.C. (230-260 g) or Harlan, Prattville Ala. (240-280 g), were maintained 4 per cage in animal quarters on a regular light/dark cycle (lights on 0600-1800) with ad libitum food and water for approximately 1 week before the experiment. The range of body weights on the 2 days of testing was 230-260 grams. The experiment was done on one day, with animals allowed to recover for three days before experiments are repeated.
Peptide Preparation. Test articles are prepared at the desired concentration in saline for either IP injection or gavage administration with N=6 for each dose and vehicle. […] When complete ED50s are determined, dosing range of the peptide will be 10, 3, 1, 0.3, 0.1 of the estimated ED50, covering two log orders of range.
The Hotplate Assay. […] Animals were placed on the plate, and the latency between the time a rat was placed on the surface and when it lifts or licks a back paw (indicative of pain sensation) was determined. […] Assays are scored as the percent of maximal possible effect (% MPE) defined as 100%, which corresponds to the rats remaining on the hotplate for 30 seconds without responding. Thus, % MPE are calculated using the following equation: % MPE=[(post-drug latency−pre-drug latency)/(cut-off pre-drug latency)]×100%. […]

[5] = intra-stomach, -duodenum, -jejunum, -colon
Protocol: These samples were used for the determination of plasma drug by LC/MS/MS for estimating pharmacokinetic parameters and segmental absorption. The bioavailability of intra-stomach, intra-duodenum, intra-jejunum, intra-colon administration relative to intravenous administration and gavage was calculated.

[6] = 100 μg/mL in whole rat blood

**Q.** Which results are given for CC(C)C[C@H](NC(=O)[C@@H](NC(=O)[C@H](Cc1ccc(O)cc1)NC(=O)[C@@H]1CCCN1C(=O)[C@H](CCCNC(=N)N)NC(=O)[C@H](CCCCCN)N=[N+]=[N-])C(C)(C)C)C(=O)O [ABS13, N3-L-homolysine-Arg-Pro-Tyr-tertLeu-Leu-COOH] (X5-RPY[Tle]L-OH)?
**A.** NTR-1/NTR-2 selectivity ([1]; Table 12): 1.9; improvement of NTR-2 to NTR-1 selectivity ([1]; —NH2 of ABS1 changed to —N3): ~10 fold

**Q.** Which “clearance relative to rat hepatic blood flow” value ([2]; 15 min intravenous infusion 100 mg/kg) does the source give for CC(C)C[C@H](NC(=O)[C@@H](NC(=O)[C@H](Cc1ccc(O)cc1)NC(=O)[C@@H]1CCCN1C(=O)[C@H](CCCNC(=N)N)NC(=O)[C@@H](C)CCCCCN)C(C)(C)C)C(=O)O [ABS201.2HCl] (X1-RPY[Tle]L-OH) here?
**A.** 6.88 fold

**Q.** What about the half-life ([2]; SD, rat, in vivo, iv, 100 mg/kg) of the same compound?
**A.** 29.4 min

**Q.** With CC(C)C[C@H](NC(=O)[C@@H](NC(=O)[C@H](Cc1ccc(O)cc1)NC(=O)[C@@H]1CCCN1C(=O)[C@H](CCCNC(=N)N)NC(=O)[C@@H](C)CCCCCN)C(C)(C)C)C(=O)O [ABS201, hLys-Arg-Pro-Tyr-t-Leu-Leu] (X1-RPY[Tle]L-OH) as the compound, how does the “physiological activity in rat behavioral models of schizophrenia relative to ABS13” value [3] read?
**A.** about three times as physiologically active as ABS13

**Q.** What about the half-life ([2]; rat, in vivo, iv, 1 mg/kg) of the same compound?
**A.** ~5 min

**Q.** What about the half-life ([2]; rat, in vivo, iv, 5 mg/kg) of the same compound?
**A.** 17.4 min

**Q.** What about the bioavailability ([2]; rat, in vivo, po, 50 mg/kg) of the same compound?
**A.** 0.07%

**Q.** And the half-life ([2]; rat, in vivo, po, 50 mg/kg)?
**A.** 59.4 min

**Q.** What about the “analgesic effect relative to ABS212” value [4] of the same compound?
**A.** as much or more active than ABS212

**Q.** What about the “metabolism in whole blood or plasma” value (5 or 30 min incubation at 37° C.) of the same compound?
**A.** no evidence of metabolism

**Q.** And the “distribution into blood cellular elements” value (whole blood, 5 or 30 min at 37° C.)?
**A.** about 33%

**Q.** What about the “site of absorption in the GI tract” value [5] of the same compound?
**A.** absorbed almost entirely in the intestine

**Q.** And the “distribution between cellular and serum fractions” value [6]?
**A.** distributes almost evenly between the cellular and serum fractions

**Q.** What about the metabolites detected [6] of the same compound?
**A.** No metabolites
